# Assay results from US10912763B2 (priority 2010, dated 2021).
# Read-outs that look alike come from different tables or passages of the source.
# System: painful diabetic neuropathy
# [1] = Study A, 40 μg once daily for 5 days
# [2] = Study A, 120 μg once daily for 5 days
# [3] = Study B, 80 μg once daily for 5 days
# [4] = Study B, 200 μg once daily for 5 days
# [5] = Study C, 100 μg once daily for 5 days
smiles,measurement,setting,value
CN(C)[C@]1(c2ccccc2)CC[C@]2(CC1)OCCc1c3cc(F)ccc3[nH]c12,Total number of TEAEs,"100 μg, Study C",91
same,"Total number of TEAEs, at least possibly related (in brackets)","100 μg, Study C",(52)
same,Number of events leading to withdrawal,"120 μg, Study A",0
same,Number of serious TEAEs,"120 μg, Study A",0
same,Subjects with TEAEs (number),"120 μg, Study A",17
same,Subjects with TEAEs (percent),"120 μg, Study A",(65.4%)
same,TEAEs (%) Back pain,"120 μg, Study A",0%
same,TEAEs (%) Bacteriuria,"120 μg, Study A",0%
same,TEAEs (%) Cold sweat,"120 μg, Study A",0%
same,TEAEs (%) Constipation,"120 μg, Study A",7.7%
same,TEAEs (%) Dizziness,"120 μg, Study A",23.1%
same,TEAEs (%) Dyspepsia,"120 μg, Study A",0%
same,TEAEs (%) ECG QT prolonged,"120 μg, Study A",3.8%
same,TEAEs (%) Fatigue,"120 μg, Study A",3.8%
same,TEAEs (%) Headache,"120 μg, Study A",23.1%
same,TEAEs (%) Hyperglycemia,"120 μg, Study A",3.8%
same,TEAEs (%) Nausea,"120 μg, Study A",23.1%
same,TEAEs (%) Oral discomfort,"120 μg, Study A",0%
same,TEAEs (%) Oropharyngeal Pain,"120 μg, Study A",0%
same,TEAEs (%) Peripheral oedema,"120 μg, Study A",3.8%
same,TEAEs (%) Pruritus,"120 μg, Study A",0%
same,TEAEs (%) Vision blurred,"120 μg, Study A",0%
same,TEAEs (%) Visual impairment,"120 μg, Study A",0%
same,TEAEs (%) Vomiting,"120 μg, Study A",7.7%
same,Total number of TEAEs,"120 μg, Study A",54
same,"Total number of TEAEs, at least possibly related (in brackets)","120 μg, Study A",(36)
same,Number of events leading to withdrawal,"200 μg, Study B",0
same,Number of serious TEAEs,"200 μg, Study B",0
same,Subjects with TEAEs (number),"200 μg, Study B",19
same,Subjects with TEAEs (percent),"200 μg, Study B",(82.6%)
same,TEAEs (%) Back pain,"200 μg, Study B",0%
same,TEAEs (%) Bacteriuria,"200 μg, Study B",0%
same,TEAEs (%) Cold sweat,"200 μg, Study B",4.3%
same,TEAEs (%) Constipation,"200 μg, Study B",4.3%
same,TEAEs (%) Dizziness,"200 μg, Study B",34.8%
same,TEAEs (%) Dyspepsia,"200 μg, Study B",0%
same,TEAEs (%) ECG QT prolonged,"200 μg, Study B",0%
same,TEAEs (%) Fatigue,"200 μg, Study B",21.7%
same,TEAEs (%) Headache,"200 μg, Study B",17.4%
same,TEAEs (%) Hyperglycemia,"200 μg, Study B",0%
same,TEAEs (%) Nausea,"200 μg, Study B",39.1%
same,TEAEs (%) Oral discomfort,"200 μg, Study B",0%
same,TEAEs (%) Oropharyngeal Pain,"200 μg, Study B",0%
same,TEAEs (%) Peripheral oedema,"200 μg, Study B",0%
same,TEAEs (%) Pruritus,"200 μg, Study B",0%
same,TEAEs (%) Vision blurred,"200 μg, Study B",13.0%
same,TEAEs (%) Visual impairment,"200 μg, Study B",8.7%
same,TEAEs (%) Vomiting,"200 μg, Study B",13.0%
same,Total number of TEAEs,"200 μg, Study B",91
same,"Total number of TEAEs, at least possibly related (in brackets)","200 μg, Study B",(76)
same,Typical adverse events expected from μ-opioid receptor agonists,40 to 200 μg once daily,starting to be present only at the top dose of 200 μg
same,"Change from overall baseline (pain intensity, NRS), ANCOVA",[1],−2.37
same,"Change from overall baseline (pain intensity, NRS), descriptive statistics",[1],−1.63
same,"Change from period baseline (pain intensity, NRS), ANCOVA",[1],−2.25
same,"Change from period baseline (pain intensity, NRS), descriptive statistics",[1],−1.74
same,"Change from overall baseline (pain intensity, NRS), ANCOVA",[2],−2.04
same,"Change from overall baseline (pain intensity, NRS), descriptive statistics",[2],−2.55
same,"Change from period baseline (pain intensity, NRS), ANCOVA",[2],−1.78
same,"Change from period baseline (pain intensity, NRS), descriptive statistics",[2],−2.18
same,"Change from overall baseline (pain intensity, NRS), ANCOVA",[3],−2.39
same,"Change from overall baseline (pain intensity, NRS), descriptive statistics",[3],−2.35
same,"Change from period baseline (pain intensity, NRS), ANCOVA",[3],−1.78
same,"Change from period baseline (pain intensity, NRS), descriptive statistics",[3],−1.91
same,"Change from overall baseline (pain intensity, NRS), ANCOVA",[4],−2.68
same,"Change from overall baseline (pain intensity, NRS), descriptive statistics",[4],−2.74
same,"Change from period baseline (pain intensity, NRS), ANCOVA",[4],−1.78
same,"Change from period baseline (pain intensity, NRS), descriptive statistics",[4],−1.63
same,"Change from overall baseline (pain intensity, NRS), ANCOVA",[5],−2.0
same,"Change from overall baseline (pain intensity, NRS), descriptive statistics",[5],−2.07
same,"Change from period baseline (pain intensity, NRS), ANCOVA",[5],−1.9
same,"Change from period baseline (pain intensity, NRS), descriptive statistics",[5],−2.01
same,Dizziness,all doses examined,reported more frequently compared to placebo
